# Measured affinities in a library of Ab-14 light chain variants

Antigen: PDVDLGDISGINAS, a 14-residue peptide of the SARS-CoV-2 spike HR2 region.

Parent scFv Ab-14: VH joined to VL by the linker GGGGSGGGGSGGGGS. Changes lie in the light chain CDRs alone.
VH: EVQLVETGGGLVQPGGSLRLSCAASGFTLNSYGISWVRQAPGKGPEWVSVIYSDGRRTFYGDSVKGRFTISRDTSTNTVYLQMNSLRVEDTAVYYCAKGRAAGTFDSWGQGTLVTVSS
VL: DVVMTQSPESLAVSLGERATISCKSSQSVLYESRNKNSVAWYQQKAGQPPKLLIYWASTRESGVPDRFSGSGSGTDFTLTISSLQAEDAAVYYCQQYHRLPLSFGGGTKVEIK

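The starting antibody came from a phage panning campaign against this peptide. Variants in AAYL50 differ from the parent at up to three CDR positions; double and triple changes were sampled at random. In AlphaSeq, yeast of one mating type display the scFv and yeast of the other type display the target. After mating in shaken culture at 30 °C for 16 h, diploids were selected and their barcode pairs sequenced. Each replicate has its own calibration line, from reference interactions of the BCL2 family. There are three technical replicates.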

Sequences are complete VL domains.
Values are log10 of the apparent Kd in nM; lower means stronger binding.
The mean shown is taken over the replicates in which the pair was detected.
Where no diploid with the target was found in any replicate, the entry reads "nd": below detection, most likely a poor binder, though not proof of it.
Background: pairings of library AAYL50 with three empty control strains gave a value in 18% of cases (median 4.19, 5th percentile 2.99). Values in that range, when seen in few replicates, are hard to tell from nonspecific mating.
For reference, the parent read 0.65 as the reference entry and 1.68 as a member of this library.

"mean, log10 nM",detected,VL
3.73,1 of 3,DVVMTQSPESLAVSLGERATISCGSSQSELYESRNKNGVAWYQQKAGQPPKLLIYWASTRESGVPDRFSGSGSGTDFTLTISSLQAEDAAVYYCQQYHRLPLSFGGGTKVEIK
1.63,3 of 3,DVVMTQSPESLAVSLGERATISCKYSQSVLYESREKNSVAWYQQKAGQPPKLLIYWASTRESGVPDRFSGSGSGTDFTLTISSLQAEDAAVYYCHQYHRLPLSFGGGTKVEIK
2.49,3 of 3,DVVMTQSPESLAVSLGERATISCKSSQSVFYESRNKNSVAWYQQKAGQPPKLLIYWAMTRESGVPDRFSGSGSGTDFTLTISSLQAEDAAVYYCQQYHRLPLSFGGGTKVEIK
nd,0 of 3,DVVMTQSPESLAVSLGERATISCKSSQSVLYESRNKNSVAWYQQKAGQPPKLLIYWWSTRCSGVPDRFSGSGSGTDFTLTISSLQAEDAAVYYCQKYHRLPLSFGGGTKVEIK
1.28,3 of 3,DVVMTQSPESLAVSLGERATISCKYSQSVLYESVNKNSVAWYQQKAGQPPKLLIYWASTRESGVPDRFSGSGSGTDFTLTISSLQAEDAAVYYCQQYHRLPLSFGGGTKVEIK
2.60,3 of 3,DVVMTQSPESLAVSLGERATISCKESQSVLYESLNKNSVAWYQQKAGQPPKLLIYWASTRESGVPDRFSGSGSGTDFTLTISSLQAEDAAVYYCQQCHRLPLSFGGGTKVEIK
5.98,1 of 3,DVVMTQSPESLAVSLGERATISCKSSQVVLYESRNKNSVAWYQQKAGQPPKLLIYWASTRESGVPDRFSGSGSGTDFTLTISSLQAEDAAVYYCQYYHRPPLSFGGGTKVEIK
1.36,3 of 3,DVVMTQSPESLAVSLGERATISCKSSQQVLYRSRDKNSVAWYQQKAGQPPKLLIYWASTRESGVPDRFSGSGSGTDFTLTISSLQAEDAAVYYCQQYHRLPLSFGGGTKVEIK
1.49,3 of 3,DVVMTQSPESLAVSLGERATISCKSSQSVLYESRNKNSVAWYQQKAGQPPKLLIYWAETRESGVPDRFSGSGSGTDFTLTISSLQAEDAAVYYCQQYHWLFLSFGGGTKVEIK
2.90,3 of 3,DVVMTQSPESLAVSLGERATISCKSSQSVLYVSRNKNSVAWYQQKAGQPPKLLIYWASTREAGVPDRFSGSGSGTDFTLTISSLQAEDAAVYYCQQYHQLPLSFGGGTKVEIK
2.09,3 of 3,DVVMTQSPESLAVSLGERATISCKSSQSVLYESRQVNSVAWYQQKAGQPPKLLIYWASTRESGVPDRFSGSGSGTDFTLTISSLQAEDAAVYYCQQYQRLPLSFGGGTKVEIK
5.35,1 of 3,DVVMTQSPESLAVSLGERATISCKSSQSVLYESRDKNSVAWYQQKAGQPPKLLIYWASTRESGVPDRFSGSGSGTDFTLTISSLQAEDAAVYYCQQYHRLPKTFGGGTKVEIK
4.21,1 of 3,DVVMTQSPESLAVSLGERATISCGSSQSVLYESRNKNSVAWYQQKAGQPPKLLIYPASTRESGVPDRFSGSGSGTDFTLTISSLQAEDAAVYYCSQYHRLPLSFGGGTKVEIK
0.28,3 of 3,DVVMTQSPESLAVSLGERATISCKSWQSVLTESRNKNSVAWYQQKAGQPPKLLIYHASTRESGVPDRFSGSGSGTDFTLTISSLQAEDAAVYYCQQYHRLPLSFGGGTKVEIK
nd,0 of 3,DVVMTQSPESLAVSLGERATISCKASQSVLYESRNKNSVHWYQQKAGQPPKLLIYWASTRENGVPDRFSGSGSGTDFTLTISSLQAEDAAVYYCQQYHRLPLSFGGGTKVEIK
nd,0 of 3,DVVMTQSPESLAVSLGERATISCKSSQSVLYESRNKNSVAWYQQKAGQPPKLLIYAASTVESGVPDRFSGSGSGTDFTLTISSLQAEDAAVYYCQQYHPLPLSFGGGTKVEIK
nd,0 of 3,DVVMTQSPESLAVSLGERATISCKSSQSVLYYSRNKNSVFWYQQKAGQPPKLLIYWAHTRESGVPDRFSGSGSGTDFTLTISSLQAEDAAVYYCQQYHRLPLSFGGGTKVEIK
4.85,1 of 3,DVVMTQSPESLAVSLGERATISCKSSQSVLYESRNKNSVEWYQQKAGQPPKLLIYWFSTRESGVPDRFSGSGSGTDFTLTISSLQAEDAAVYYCEQYHRLPLSFGGGTKVEIK
2.40,3 of 3,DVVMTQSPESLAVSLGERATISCKSSQKVLYESRNKNSVAWYQQKAGQPPKLLIYWALTRESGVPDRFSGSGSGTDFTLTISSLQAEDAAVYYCQQYHRLPLSFGGGTKVEIK
nd,0 of 3,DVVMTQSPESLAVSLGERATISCGSSQSVLYESRNKNSTAWYQQKAGQPPKLLIYWASTRESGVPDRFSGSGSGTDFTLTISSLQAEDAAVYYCQQYERLPLSFGGGTKVEIK
nd,0 of 3,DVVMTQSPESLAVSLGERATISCKSSRSVLYESRNKNSHAWYQQKAGQPPKLLIYWASTRESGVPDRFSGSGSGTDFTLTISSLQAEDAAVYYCQIYHRLPLSFGGGTKVEIK
2.26,3 of 3,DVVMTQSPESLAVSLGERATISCKSSQSVLQESRNKVNVAWYQQKAGQPPKLLIYWASTRESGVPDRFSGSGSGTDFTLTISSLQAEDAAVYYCQQYHRLPLSFGGGTKVEIK
3.99,2 of 3,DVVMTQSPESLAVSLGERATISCKSSDSVLYESRNKNSCAWYQQKAGQPPKLLIYWASTRESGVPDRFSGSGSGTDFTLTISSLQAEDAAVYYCQQYHRLPLSFGGGTKVEIK
nd,0 of 3,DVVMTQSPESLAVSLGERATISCKSSQSVLYESRNKNSNAWYQQKAGQPPKLLIYWASTYESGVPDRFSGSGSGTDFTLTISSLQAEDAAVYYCQQYHRLGLSFGGGTKVEIK

The 3 strongest on average among those seen in every replicate, once more:

VL,"mean, log10 nM",detected
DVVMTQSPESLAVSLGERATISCKSWQSVLTESRNKNSVAWYQQKAGQPPKLLIYHASTRESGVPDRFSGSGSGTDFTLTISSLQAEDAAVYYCQQYHRLPLSFGGGTKVEIK,0.28,3 of 3
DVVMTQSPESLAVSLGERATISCKYSQSVLYESVNKNSVAWYQQKAGQPPKLLIYWASTRESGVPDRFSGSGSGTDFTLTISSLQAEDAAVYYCQQYHRLPLSFGGGTKVEIK,1.28,3 of 3
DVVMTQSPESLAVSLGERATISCKSSQQVLYRSRDKNSVAWYQQKAGQPPKLLIYWASTRESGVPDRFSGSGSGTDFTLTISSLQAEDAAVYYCQQYHRLPLSFGGGTKVEIK,1.36,3 of 3

From the AlphaSeq antibody data of Engelhart et al. 2022 (doi:10.1038/s41597-022-01779-4), copy in the FLAb collection.